From US7192924B2, “Corticotropin releasing factor 2 receptor agonists” (priority 2002, dated 2007) come the findings set out here.

The target in test [1] is T1, CRF2R (Homo sapiens, UniProt Q13324).
T1 sequence (Q13324 1-411): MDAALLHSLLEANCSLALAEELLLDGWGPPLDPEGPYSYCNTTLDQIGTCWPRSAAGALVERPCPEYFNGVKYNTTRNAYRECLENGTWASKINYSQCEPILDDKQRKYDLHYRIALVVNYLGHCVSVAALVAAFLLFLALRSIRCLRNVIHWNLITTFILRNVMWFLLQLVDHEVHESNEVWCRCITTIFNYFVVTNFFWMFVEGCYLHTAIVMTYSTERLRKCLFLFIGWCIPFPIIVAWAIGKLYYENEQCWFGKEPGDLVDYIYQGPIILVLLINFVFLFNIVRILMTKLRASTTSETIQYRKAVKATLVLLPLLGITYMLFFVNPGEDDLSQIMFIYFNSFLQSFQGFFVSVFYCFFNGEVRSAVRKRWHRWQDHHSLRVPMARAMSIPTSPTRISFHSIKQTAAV
Briefly: CRF2R agonist activity (EC50, Emax), called comparative CRF binding. It is filed as cell-based. A digest of the protocol: (§1)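 Peptides were applied to cells carrying a single CRFR subtype, then cAMP levels or CRE-driven reporter expression were quantified against vehicle-treated cells.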

The target in test [2] is T2, CRF1R (Homo sapiens, UniProt P34998).
T2 sequence (P34998 24-415): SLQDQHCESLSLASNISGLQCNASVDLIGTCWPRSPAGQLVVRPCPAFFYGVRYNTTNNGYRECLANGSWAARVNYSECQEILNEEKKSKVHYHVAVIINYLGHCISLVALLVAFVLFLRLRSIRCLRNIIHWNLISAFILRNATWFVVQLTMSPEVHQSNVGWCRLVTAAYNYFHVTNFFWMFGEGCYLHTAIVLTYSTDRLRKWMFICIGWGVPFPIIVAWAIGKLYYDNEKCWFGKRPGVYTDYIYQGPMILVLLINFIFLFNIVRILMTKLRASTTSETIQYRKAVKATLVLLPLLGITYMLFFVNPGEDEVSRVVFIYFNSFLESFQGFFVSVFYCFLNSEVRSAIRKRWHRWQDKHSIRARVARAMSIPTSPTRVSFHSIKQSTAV
Kind of test: CRF1R agonist activity (EC50, Emax), called comparative CRF binding. It counts as cell-based. The gist of the method: as §1

Like-named read-outs stand apart in the source and are kept apart here. Where only a bound is given, the exact number is not on record here.

In the case of `CC[C@H](C)[C@H](NC(=O)[C@H](CCC(=O)O)NC(=O)[C@@H](NC(=O)[C@H](CCSC)NC(=O)[C@H](CCCCN)NC(=O)[C@H](CCCNC(=N)N)NC(=O)[C@H](CC(C)C)NC(=O)[C@H](CC(C)C)NC(=O)[C@H](CCC(N)=O)NC(=O)[C@H](Cc1ccc(O)cc1)NC(=O)[C@@H]1CCCN1C(=O)[C@H](CC(C)C)NC(=O)[C@H](CC(=O)O)NC(=O)[C@@H](NC(=O)[C@H](CO)NC(=O)[C@@H](NC(=O)[C@@H]1CCCN1C(=O)[C@@H]1CCCN1C(=O)CNC(=O)[C@@H]1CCC(=O)N1)[C@@H](C)CC)[C@@H](C)CC)[C@@H](C)CC)C(=O)N[C@@H](CCC(=O)O)C(=O)N[C@@H](CCCCN)C(=O)N[C@@H](CCC(N)=O)C(=O)N[C@@H](CCC(=O)O)C(=O)N[C@@H](CCCCN)C(=O)N[C@@H](CCC(=O)O)C(=O)N[C@@H](CCCCN)C(=O)N[C@@H](CCC(N)=O)C(=O)N[C@@H](CCC(N)=O)C(=O)N[C@@H](C)C(=O)N[C@@H](C)C(=O)N[C@@H](CC(N)=O)C(=O)N[C@@H](CC(N)=O)C(=O)N[C@@H](C)C(=O)N[C@@H](CCCNC(=N)N)C(=O)N[C@@H](CC(C)C)C(=O)N[C@@H](CC(C)C)C(=O)N[C@@H](C)C(=O)N[C@@H](CCCNC(=N)N)C(N)=O` [compound 287], the concentration for a half-maximal effect (EC50) was 11.3 nM in test [1] (read-out: CRF2R EC50) and at least 1000 nM in test [2] (read-out: CRF1R EC50).

Regarding `CC[C@H](C)[C@H](NC(=O)[C@@H](NC(=O)[C@H](CC(=O)O)NC(=O)[C@H](CC(C)C)NC(=O)[C@H](CC(C)C)NC(=O)[C@H](CC(C)C)NC(=O)[C@H](CCCNC(=N)N)NC(=O)[C@H](CC(N)=O)NC(=O)[C@H](CC(N)=O)NC(=O)[C@H](C)NC(=O)[C@H](C)NC(=O)[C@H](CCC(N)=O)NC(=O)[C@H](CCC(N)=O)NC(=O)[C@H](CCCCN)NC(=O)[C@H](CCC(=O)O)NC(=O)[C@H](CCCCN)NC(=O)[C@H](CCC(=O)O)NC(=O)[C@H](CCC(N)=O)NC(=O)[C@H](CCCCN)NC(=O)[C@H](CCC(=O)O)NC(=O)[C@@H](NC(=O)[C@H](CCC(=O)O)NC(=O)[C@@H](NC(=O)[C@@H](NC(=O)[C@H](CCCCN)NC(=O)[C@H](CCCNC(=N)N)NC(=O)[C@H](CC(C)C)NC(=O)[C@H](CC(C)C)NC(=O)[C@@H](NC(=O)[C@H](CCC(N)=O)NC(=O)[C@@H]1CCCN1C(=O)[C@H](CC(C)C)NC(=O)[C@H](CC(=O)O)NC(=O)[C@@H](NC(=O)[C@H](CO)NC(=O)[C@@H](NC(=O)[C@@H]1CCCN1C(=O)[C@@H]1CCCN1C(=O)CNC(=O)[C@@H]1CCC(=O)N1)[C@@H](C)CC)[C@@H](C)CC)[C@@H](C)CC)C(C)C)[C@@H](C)CC)[C@@H](C)CC)[C@@H](C)O)C(N)=O` [compound 293], the 50% effective concentration (EC50) in test [1] was 40.3 nM; in test [2], 520 nM.

In the case of `CC[C@H](C)[C@H](NC(=O)[C@H](CCCNC(=N)N)NC(=O)[C@H](C)NC(=O)[C@H](CC(C)C)NC(=O)[C@H](CC(C)C)NC(=O)[C@H](CCCNC(=N)N)NC(=O)[C@H](C)NC(=O)[C@H](CC(N)=O)NC(=O)[C@H](CC(N)=O)NC(=O)[C@H](C)NC(=O)[C@H](C)NC(=O)[C@H](CCC(N)=O)NC(=O)[C@H](CCC(N)=O)NC(=O)[C@H](CCCCN)NC(=O)[C@H](CCC(=O)O)NC(=O)[C@H](CCCCN)NC(=O)[C@H](CCC(=O)O)NC(=O)[C@H](CCC(N)=O)NC(=O)[C@H](CCCCN)NC(=O)[C@H](CCC(=O)O)NC(=O)[C@@H](NC(=O)[C@H](CCC(=O)O)NC(=O)[C@@H](NC(=O)[C@@H](NC(=O)[C@H](CCCCN)NC(=O)[C@H](CCCNC(=N)N)NC(=O)[C@H](CC(C)C)NC(=O)[C@H](CC(C)C)NC(=O)[C@@H](NC(=O)[C@@H](NC(=O)[C@@H]1CCCN1C(=O)[C@H](CC(C)C)NC(=O)[C@H](CC(=O)O)NC(=O)[C@@H](NC(=O)[C@H](CO)NC(=O)[C@@H](NC(=O)[C@@H]1CCCN1C(=O)[C@@H]1CCCN1C(=O)CNC(=O)[C@@H]1CCC(=O)N1)[C@@H](C)CC)[C@@H](C)CC)[C@@H](C)CC)[C@@H](C)CC)C(C)C)[C@@H](C)CC)[C@@H](C)CC)C(N)=O` [compound 295], the concentration giving a half-maximal response (EC50) is 55 nM in test [1] (read-out: CRF2R EC50) and at least 1000 nM in test [2] (read-out: CRF1R EC50).

Consider `CC[C@H](C)[C@H](NC(=O)[C@@H](NC(=O)[C@H](C)NC(=O)[C@H](CC(C)C)NC(=O)[C@H](CC(C)C)NC(=O)[C@H](CC(C)C)NC(=O)[C@H](C)NC(=O)[C@H](CC(N)=O)NC(=O)[C@H](CC(N)=O)NC(=O)[C@H](C)NC(=O)[C@H](C)NC(=O)[C@H](CCC(N)=O)NC(=O)[C@H](CCC(N)=O)NC(=O)[C@H](CCCCN)NC(=O)[C@H](CCC(=O)O)NC(=O)[C@H](CCCCN)NC(=O)[C@H](CCC(=O)O)NC(=O)[C@H](CCC(N)=O)NC(=O)[C@H](CCCCN)NC(=O)[C@H](CCC(=O)O)NC(=O)[C@@H](NC(=O)[C@H](CCC(=O)O)NC(=O)[C@@H](NC(=O)[C@@H](NC(=O)[C@H](CCCCN)NC(=O)[C@H](CCCNC(=N)N)NC(=O)[C@H](CC(C)C)NC(=O)[C@H](CC(C)C)NC(=O)[C@@H](NC(=O)[C@H](CCC(N)=O)NC(=O)[C@@H]1CCCN1C(=O)[C@H](CC(C)C)NC(=O)[C@H](CC(=O)O)NC(=O)[C@@H](NC(=O)[C@H](CO)NC(=O)[C@@H](NC(=O)[C@@H]1CCCN1C(=O)[C@@H]1CCCN1C(=O)CNC(=O)[C@@H]1CCC(=O)N1)[C@@H](C)CC)[C@@H](C)CC)[C@@H](C)CC)C(C)C)[C@@H](C)CC)[C@@H](C)CC)[C@@H](C)O)C(N)=O` [compound 299], for which the EC50 in test [1] is 46.4 nM; in test [2], at least 1000 nM.

On to `CC[C@H](C)[C@H](NC(=O)[C@@H](NC(=O)[C@H](CC(=O)O)NC(=O)[C@H](CC(C)C)NC(=O)[C@H](CC(C)C)NC(=O)[C@H](CC(C)C)NC(=O)[C@H](CCCNC(=N)N)NC(=O)[C@H](CC(N)=O)NC(=O)[C@H](CC(N)=O)NC(=O)[C@H](C)NC(=O)[C@H](C)NC(=O)[C@H](CCC(N)=O)NC(=O)[C@H](CCC(N)=O)NC(=O)[C@H](CCCCN)NC(=O)[C@H](CCC(=O)O)NC(=O)[C@H](CCCCN)NC(=O)[C@H](CCC(=O)O)NC(=O)[C@H](CCC(N)=O)NC(=O)[C@H](CCCCN)NC(=O)[C@H](CCC(=O)O)NC(=O)[C@@H](NC(=O)[C@H](CCC(=O)O)NC(=O)[C@@H](NC(=O)[C@H](CCSC)NC(=O)[C@H](CCCCN)NC(=O)[C@H](CCCNC(=N)N)NC(=O)[C@H](CC(C)C)NC(=O)[C@H](CC(C)C)NC(=O)[C@H](C)NC(=O)[C@H](C)NC(=O)[C@@H]1CCCN1C(=O)[C@H](CC(C)C)NC(=O)[C@H](CC(=O)O)NC(=O)[C@@H](NC(=O)[C@H](CO)NC(=O)[C@@H](NC(=O)[C@@H]1CCCN1C(=O)[C@@H]1CCCN1C(=O)CNC(=O)[C@@H]1CCC(=O)N1)[C@@H](C)CC)[C@@H](C)CC)[C@@H](C)CC)[C@@H](C)CC)[C@@H](C)O)C(N)=O` [compound 303], for which the EC50 was determined as 27.3 nM in test [1] and 582 nM in test [2].

With `CC[C@H](C)[C@H](NC(=O)[C@@H](NC(=O)[C@H](CC(=O)O)NC(=O)[C@H](CC(C)C)NC(=O)[C@H](CC(C)C)NC(=O)[C@H](CC(C)C)NC(=O)[C@H](CCCNC(=N)N)NC(=O)[C@H](CC(N)=O)NC(=O)[C@H](CC(N)=O)NC(=O)[C@H](C)NC(=O)[C@H](C)NC(=O)[C@H](CCC(N)=O)NC(=O)[C@H](CCC(N)=O)NC(=O)[C@H](CCCCN)NC(=O)[C@H](CCC(=O)O)NC(=O)[C@H](CCCCN)NC(=O)[C@H](CCC(=O)O)NC(=O)[C@H](CCC(N)=O)NC(=O)[C@H](CCCCN)NC(=O)[C@H](CCC(=O)O)NC(=O)[C@@H](NC(=O)[C@H](CCC(=O)O)NC(=O)[C@@H](NC(=O)[C@H](CCSC)NC(=O)[C@H](CCCCN)NC(=O)[C@H](CCCNC(=N)N)NC(=O)[C@H](CC(C)C)NC(=O)[C@H](CC(C)C)NC(=O)[C@H](C)NC(=O)[C@H](CC(C)C)NC(=O)[C@@H]1CCCN1C(=O)[C@H](CC(C)C)NC(=O)[C@H](CC(=O)O)NC(=O)[C@@H](NC(=O)[C@H](CO)NC(=O)[C@@H](NC(=O)[C@@H]1CCCN1C(=O)[C@@H]1CCCN1C(=O)CNC(=O)[C@@H]1CCC(=O)N1)[C@@H](C)CC)[C@@H](C)CC)[C@@H](C)CC)[C@@H](C)CC)[C@@H](C)O)C(N)=O` [compound 308], the values for the concentration giving a half-maximal response (EC50) in test [1] and in test [2] were 3.3 nM and 63.5 nM, respectively.
